This is a sample that favours compounds with a hit; in the whole collection about 2.8% have one here.
PGC1a acetyl inh = PGC1a acetylation modulation, inhibitor mode | U2OS PGC1a acetylation, AlphaScreen anti-acetyl-lysine; with virally co-expressed GCN5 acetyltransferase | inhibition, % at 15.6 µM | 350,000 tested, 0.17% active;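 active = every replicate shows inhibition of at least 40%; inconclusive = mean inhibition at least 40% but some replicate below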
PglD DTNB = inhibitors of Campylobacter jejuni PglD acetyltransferase | inhibition, % at 12.5 µM | AID 602405 | purified PglD enzyme, DTNB colorimetric CoA detection | 360,000 tested, 0.098% active; in the data active = inhibition above about 16%, passing the limit was not always enough; inconclusive = no clear call, values can overlap the other calls
Statin myotox sup = suppression of simvastatin myotoxicity | C2C12 myotubes + simvastatin, ATP luminescence, 48 h; scaled: DMSO 0, geranylgeraniol control 100 | rescue of ATP level, % at 7.49 µM | 330,000 tested, 0.78% active | AID 602340;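 active = mean ATP rescue above about 67%, or every replicate alone reaching that limit, limit read from the data, passing the limit was not always enough; inconclusive = no clear call, values can overlap the other calls; inactive = mean under the limit and some replicate under it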;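 note: myotubes were challenged with 10 µM simvastatin during compound exposure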
Yeast UUG start = yeast start codon fidelity modulation | S. cerevisiae UUG-firefly luciferase reporter, luminescence/redox ratio | activity score, % at 18.7 µM | 0.13% of 350,000 active | AID 602363;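 active means replicate mean at a twofold rise or more, about +100% in these data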;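 further: firefly luciferase made from a UUG start codon reports start codon fidelity; reporter light over untreated wells divided by growth signal over untreated wells; some hits fall short of that in this replicate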
E-sel inducer = E-selectin induction on HUVECs; P16581; 260,000 tested, 0.37% active; AID 686992; activation, % at 7.58 µM; HUVEC E-selectin immunofluorescence imaging; normalized: neutral wells 0, TNF-alpha wells 100;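 active = mean E-selectin-positive cell signal at least 10% of the positive control, reached in at least 60% of replicates, without over 20% cell loss; inconclusive = no rule given, readout overlaps actives, possibly toxicity-flagged; inactive = the rest, including those meeting only one limit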
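Test system: HUVEC | Signal: Immunofluorescence imaging | Read-out: Percent E-selectin-positive cells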
esBAF inh = SWI/SNF esBAF complex inhibition; mouse ES cells, Bmi1-luciferase knock-in reporter, 24 h; 100% = twice the neutral-well signal; reporter increase, % at 12.5 µM; 350,000 tested, 2% active; AID 602393; in the data active = activation above about 40%; inconclusive = no clear call, values can overlap the other calls;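 note: a rise in the Bmi1 reporter signal indicates esBAF inhibition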
esBAF Ring1 qPCR = de-represses Ring1 in mouse ESCs, confirming esBAF inhibition | AID 743176 | fold change at 33 µM | shares compounds with esBAF inh | 550 tested, under 10 active | mouse ESC E14, Ring1 mRNA RT-qPCR fold change;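 active = Ring1 gene expression raised more than 2-fold over untreated cells in both replicates at either tested dose; inconclusive = only one replicate above 2-fold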;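 note: Ring1 transcript normalised to actin housekeeping signal by TaqMan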
Fgf4 repress = esBAF inhibition confirmed by Fgf4 repression. shares compounds with esBAF inh. mouse ESC E14, Fgf4 mRNA qPCR fold change; hits give low values. Fgf4 expression fold change at 33 µM. 550 tested, 4% active. AID 743177;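 active = Fgf4 expression under 0.8 fold of control in both repeat measurements at one or both tested doses; inconclusive = under 0.8 fold in just a single repeat measurement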;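 note: Fgf4 transcript normalised to actin in duplex TaqMan qPCR; cells exposed to compound for 24 h before lysis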
Bmi1 derepress = esBAF inhibition confirmed by Bmi1 de-repression | 550 tested, under 10 active | mouse ESE14 ES cells, Bmi1 mRNA qPCR fold; hits give high values | shares compounds with esBAF inh | fold change at 33 µM | AID 743180;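 active = Bmi1 expression fold change above 6 at either tested concentration, seen in replicate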;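 note: higher fold means more Bmi1 de-repression and stronger esBAF inhibition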
A549 cytotox = cytotoxicity in A549 cells; shares compounds with esBAF inh; plate reader; cell viability change % (negative = cytotoxic), % at 25 µM, hits read low; 550 tested, under 10 active; call rule not given here
HepG2 tox SP = HepG2 cell cytotoxicity at single point; plate reader; hits give low values; shares compounds with esBAF inh; activity change, negative = inhibition, % at 25 µM; 550 tested, 4% active; in the data active = activity change below about -50%
HEK293 tox SP = HEK293 cell cytotoxicity at single point | activity change, negative = inhibition, % at 25 µM, hits read low | plate reader | shares compounds with esBAF inh | 550 tested, 3% active; in the data active = activity change below about -38%, passing the limit was not always enough
A number is an active result; – = inactive; ? = inconclusive; · = no result given.

SMILES | PGC1a acetyl inh | PglD DTNB | Statin myotox sup | Yeast UUG start | E-sel inducer | esBAF inh | esBAF Ring1 qPCR | Fgf4 repress | Bmi1 derepress | A549 cytotox | HepG2 tox SP | HEK293 tox SP
COc1ccc(OCc2cc(C(=O)NC(C)c3csc(C)n3)no2)c(Cl)c1 (stereo not drawn) | – | – | – | – | · | 66 | – | – | – | – | – | –
C[C@@H]1CN([C@@H](C)CO)C(=O)c2ccccc2-c2ccccc2CO[C@H]1CN(C)C(=O)N[C@H](C)c1ccccc1 | – | – | · | · | – | – | · | · | · | · | · | ·
O=C(O)C=C1CCN(c2ncc(C(F)(F)F)cc2Cl)CC1 | – | – | – | – | · | 63 | – | – | – | – | – | –
Cn1c(/C=C/c2ccccc2)nc2ccccc2c1=O | · | – | – | – | – | – | · | · | · | · | · | ·
C(=Cc1cnnc2ccccc12)c1ccccc1 | – | – | – | – | – | 138 | – | – | – | – | – | –
OC(c1ccccc1)c1nc(-c2ccc3c(c2)OCO3)cs1 (stereo not drawn) | – | – | – | – | – | 61 | – | – | – | – | – | –
OC(c1cccc(Cl)c1)c1nc(-c2ccc3c(c2)OCO3)cs1 (stereo not drawn) | – | – | – | – | – | – | · | · | · | · | · | ·
CN(C)S(=O)(=O)c1cccc(C(=O)Nc2ccc(Cl)cn2)c1 | – | – | – | – | · | 63 | – | – | – | – | – | –
CC(C)NC(=O)N(C)C[C@@H]1OCCCC[C@H](C)Oc2ccc(N(C)C)cc2C(=O)N([C@@H](C)CO)C[C@@H]1C | – | – | · | · | – | · | · | · | · | · | · | ·
O=C(CCc1nnc(CCc2c[nH]c3ccccc23)o1)NC1CCC1 | – | – | – | – | – | 66 | – | – | – | – | – | –
Nc1ccc2ccccc2c1[N+](=O)[O-] | – | · | – | · | – | – | · | · | · | · | · | ·
Nc1cc2c3ccccc3ccc2c2ccccc12 | – | · | – | · | – | 79 | 0.64 | 0.48 | 37 | – | – | -119
COc1ccc2c(c1)nc(-c1cccc(Br)c1)c(=O)n2C(c1ccccn1)c1nc2ccccc2[nH]1 (stereo not drawn) | – | – | – | – | – | 72 | – | – | – | – | – | –
C[C@@H]1CN([C@@H](C)CO)C(=O)c2cc(C#CC3(O)CCCC3)cnc2O[C@H]1CN(C)C(=O)CC1CC1 | – | – | – | – | – | – | · | · | · | · | · | ·
Cc1ccc(Nc2nc(-c3cccnc3)cs2)cc1Cl | – | – | – | – | · | 63 | – | 0.74 | – | – | – | –
c1cncc(Nc2nc(-c3cccnc3)cs2)c1 | – | · | · | · | · | · | · | · | · | · | · | ·
O=C(Nc1ccc(Nc2ccccc2)cc1)Nc1ccccc1Cl | · | – | – | – | – | 70 | – | – | – | – | – | –
O=C(NCC[C@@H]1CC[C@@H](NC(=O)C2CCCCC2)[C@H](CO)O1)Nc1ccc(Cl)cc1 | – | – | – | – | – | – | · | · | · | · | · | ·
O=C1CCCc2c1sc1nc3n(c(=O)c21)CCCCC3 | – | – | – | – | · | 68 | – | – | – | – | -62 | –
O=C(O)c1ccc(N/N=C/c2cccc3nccnc23)cc1 | – | – | – | – | – | 65 | – | – | – | – | – | –
Fc1ccccc1/C=N/Nc1nc2ccccc2o1 | – | – | – | – | – | – | · | · | · | · | · | ·
FC(F)Oc1ccccc1/C=N/Nc1nc2ccccc2o1 | · | – | – | – | – | 59 | – | – | – | – | – | –
O=C(c1ccccc1)N1CC[C@@H]2[C@H]1c1cc(-c3ccccc3F)ccc1N[C@@H]2CO | – | – | – | – | – | – | · | · | · | · | · | ·
COc1ccc(NC(=O)c2cc(-c3cccs3)on2)cc1 | – | – | – | – | – | 62 | – | ? | – | – | – | –
COc1cccc(-c2nc(-c3ccc(NC(=O)c4cccs4)cc3)no2)c1 | – | – | – | – | · | 62 | – | – | – | – | – | –
SMILES | PGC1a acetyl inh | PglD DTNB | Statin myotox sup | Yeast UUG start | E-sel inducer | esBAF inh | esBAF Ring1 qPCR | Fgf4 repress | Bmi1 derepress | A549 cytotox | HepG2 tox SP | HEK293 tox SP
COc1cccc(-c2nc(-c3ccc(NC(=O)c4ccncc4)cc3)no2)c1 | – | – | – | – | · | – | · | · | · | · | · | ·
COc1ccc(S(=O)(=O)N(C)C[C@H]2Oc3ccc(NS(=O)(=O)c4ccc(C)cc4)cc3C(=O)N([C@H](C)CO)C[C@H]2C)cc1 | – | · | · | · | – | · | · | · | · | · | · | ·
CN(Cc1cccnc1)C(=O)c1cc(COc2ccc3c(c2)CCCC3)on1 | · | – | – | – | – | 86 | – | – | – | – | – | –
Cc1noc(C)c1S(=O)(=O)Nc1ccc2c(c1)CC(=O)N([C@@H](C)CO)C[C@@H](C)[C@H](CN(C)S(=O)(=O)c1ccc(F)cc1)O2 | – | – | – | – | – | – | · | · | · | · | · | ·
CSc1cccc(NC(=O)N2CCc3ccc(NC(=O)c4ccccn4)cc3C2)c1 | – | – | – | – | · | 60 | – | – | – | – | – | –
C[C@H](CO)N1C[C@H](C)[C@@H](CN(C)Cc2ccc(F)cc2)Oc2cc(C#CCN(C)C)ccc2S1(=O)=O | – | – | – | – | – | – | · | · | · | · | · | ·
CC(C)N1CC2(CC(c3ccccc3C(F)(F)F)=NO2)CN1C(=O)c1ccc(C(C)(C)C)cc1 (stereo not drawn) | – | · | – | · | – | – | · | · | · | · | · | ·
CC(C)N1CC2(CC(c3ccccc3F)=NO2)CN1C(=O)c1ccc(C(C)(C)C)cc1 (stereo not drawn) | – | · | – | · | – | 75 | – | – | – | – | – | –
CN(c1cccc(NC(=O)c2ccc(C(C)(C)C)cc2)c1)S(C)(=O)=O | – | – | – | – | – | 73 | – | – | – | – | – | –
C[C@H]1CN([C@@H](C)CO)S(=O)(=O)c2ccc(-c3ccc(F)cc3)cc2O[C@@H]1CN(C)C | – | – | – | – | – | – | · | · | · | · | · | ·
C=CCn1c(O)c(C=Nc2ccccc2)sc1=S | – | – | – | – | – | 68 | – | – | – | – | – | –
Oc1c(C=Nc2ccccc2)sc(=S)n1Cc1ccccc1 | – | · | – | · | · | – | · | · | · | · | · | ·
Cn1cccc1C(=O)OCc1ccc(C(C)(C)C)cc1 | · | – | – | – | · | 84 | – | ? | – | – | – | –
c1ccc(CCNc2ccc3c(c2)Cc2ccccc2-3)nc1 | – | – | – | – | – | 82 | – | ? | – | – | – | –
c1ccc(CCNc2ccccn2)nc1 | · | · | · | · | – | · | · | · | · | · | · | ·
